# In PubChem BioAssay AID492959 (The Scripps Research Institute Molecular Screening Center, 2010):
# Active and inactive are the calls of the source.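 Rule for the calls: active = IC50 of 10 µM or lower; inactive = IC50 above 10 µM.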
# Tested on: E. coli AddAB+ with T4 gene 2 phage, OD growth
# Test: inhibition of AddAB recombination enzyme – absorbance, E. coli, T4 phage, dose response (AID 492959);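 note: growth read as OD600 after 18 h at 37 °C; AddAB inhibitors let the phage kill the cells so OD falls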
# Conditions: AddAB enzyme is from H. pylori; T4 phage with nonsense-mutated gene 2
smiles,measurement,value
Cc1cc(NS(=O)(=O)c2ccc(N)cc2)no1,IC50,inactive: 36.2 µM
